Source: ChEMBL document CHEMBL1158075, “Brominated cyclodipeptides from the marine sponge Geodia barretti as selective 5-HT ligands” (J Nat Prod, 2006)

Protein sequences, listed by entry. Tags and fused reporters are not part of them. Lines headed by an entry give the natural chain unless they say otherwise; changes in a name come on top.
UniProt P28221: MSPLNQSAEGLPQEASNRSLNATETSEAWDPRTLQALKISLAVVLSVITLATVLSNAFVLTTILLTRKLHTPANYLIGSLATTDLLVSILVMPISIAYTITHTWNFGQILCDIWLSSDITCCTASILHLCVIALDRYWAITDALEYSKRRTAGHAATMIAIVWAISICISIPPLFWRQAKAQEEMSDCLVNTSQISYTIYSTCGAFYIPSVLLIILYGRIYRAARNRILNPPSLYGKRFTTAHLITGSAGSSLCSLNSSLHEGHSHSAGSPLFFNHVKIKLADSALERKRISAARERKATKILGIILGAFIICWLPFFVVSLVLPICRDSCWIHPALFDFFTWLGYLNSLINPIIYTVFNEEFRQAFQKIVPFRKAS

Target: 5-hydroxytryptamine receptor 1D (Homo sapiens, UniProt P28221)
Assay: Displacement of [1,2-3H]5-carboxamidotryptamine from human 5HT1D receptor expressed in HEK293 cells
Format: cell-based

SMILES | Ki [µM]
NC(N)=NCCC[C@@H]1NC(=O)[C@H](Cc2c[nH]c3cc(Br)ccc23)NC1=O | > 10
N=C(N)NCCC[C@@H]1NC(=O)/C(=C/c2c[nH]c3cc(Br)ccc23)NC1=O [BARETTIN] | > 10
